The values below come from PubChem BioAssay AID2796 (The Scripps Research Institute Molecular Screening Center, 2010).

The chains behind the UniProt entries cited, without tags or fusion partners.
UniProt P35869, whole entry: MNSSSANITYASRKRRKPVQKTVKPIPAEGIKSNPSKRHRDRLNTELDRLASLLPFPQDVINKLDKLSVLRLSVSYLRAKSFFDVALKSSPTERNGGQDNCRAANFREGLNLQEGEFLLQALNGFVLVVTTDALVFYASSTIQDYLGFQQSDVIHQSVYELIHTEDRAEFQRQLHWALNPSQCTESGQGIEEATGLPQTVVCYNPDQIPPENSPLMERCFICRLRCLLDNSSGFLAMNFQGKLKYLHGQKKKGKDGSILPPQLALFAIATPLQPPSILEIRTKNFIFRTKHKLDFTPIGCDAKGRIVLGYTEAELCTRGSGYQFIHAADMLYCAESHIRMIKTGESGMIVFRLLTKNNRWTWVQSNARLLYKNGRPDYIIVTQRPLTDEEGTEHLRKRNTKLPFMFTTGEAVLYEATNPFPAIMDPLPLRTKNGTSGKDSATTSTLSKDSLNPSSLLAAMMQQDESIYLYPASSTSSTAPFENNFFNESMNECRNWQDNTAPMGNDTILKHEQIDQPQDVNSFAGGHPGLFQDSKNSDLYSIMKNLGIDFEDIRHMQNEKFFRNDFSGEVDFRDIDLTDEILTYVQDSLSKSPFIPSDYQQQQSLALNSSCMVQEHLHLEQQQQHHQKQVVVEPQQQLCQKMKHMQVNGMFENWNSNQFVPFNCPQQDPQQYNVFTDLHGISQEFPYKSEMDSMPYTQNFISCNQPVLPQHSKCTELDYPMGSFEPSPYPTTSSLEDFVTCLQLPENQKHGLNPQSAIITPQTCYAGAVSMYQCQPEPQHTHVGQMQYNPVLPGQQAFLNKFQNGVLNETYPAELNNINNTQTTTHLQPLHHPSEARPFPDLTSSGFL

Structures are written as SMILES. The list shows a part of the results, in another mix than the full data. Some results for these compounds are left out of this collection, so the calls shown say nothing about other tests. Activity calls are given as the source filed them. Cut-off read from the data, not from the text of the source: active = activation above about 47%; inactive = the rest.

This assay has as its target Aryl hydrocarbon receptor (Homo sapiens) (UniProt P35869). The experiment in a line: AHR activators, primary screen, cell-based, luminescence, luciferase reporter, human (AID 2796).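 Note: 0% = vehicle wells and 100% = reference agonist.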 As to conditions: AHR-responsive luciferase reporter cells, at 5 µM, active compounds read high.
Consider `CC(C)Oc1ccc(C(=O)NCC2(N(C)C)CCCCC2)cc1`, for which the activation was inactive: 1.96%. Regarding `CN(C)c1cccc(C(=O)NCC2(N(C)C)CCCCC2)c1`, the activation was inactive: 2.9%. In the case of `COc1ccc(Br)c(C(=O)NCC2(N3CCCCC3)CCCCC2)c1`, the activation was inactive: 2.39%. As for `O=C(OC1CN2CCC1CC2)C(CO)(c1ccccc1)c1ccccc1` (centres undefined), the activation was inactive: 1.5%. For the compound `O=C(NCC1(N2CCCCC2)CCCCC1)c1cccc(Cl)c1`, the activation is inactive: -0.1%. For `COc1cccc(C(=O)NCC2(N3CCCCC3)CCCCC2)c1`, the activation was inactive: 1.41%. As to `COc1ccc(Cl)cc1C(=O)NCC1(N(C)C)CCCCC1`, the activation was inactive: 1.06%. For the compound `COc1cc(C(=O)NCC2(N(C)C)CCCCC2)c([N+](=O)[O-])cc1OC`, the activation is inactive: 0.97%. Next, `CN(C)C1(CNC(=O)c2ccc(Br)cc2)CCCCC1`: inactive: 5.3%; `COc1ccc(C(=O)NCC2(N(C)C)CCCCC2)cc1`: inactive: 1.07%; `CCN1CCCC(OC(=O)C2(O)c3ccccc3C=Cc3ccccc32)C1` (centres undefined): inactive: 0.18%. Next, `Cc1cc(C(=O)NCC2(N3CCCCC3)CCCCC2)ccc1[N+](=O)[O-]`: inactive: -0.57%; `O=C(NCC1(N2CCCCC2)CCCCC1)c1cccc(Br)c1`: inactive: 0.97%. For `C=CCN1CCN(CCOC(=O)C(O)(c2ccccc2)c2ccccc2)CC1`, the activation was inactive: -1.11%.

Regarding `O=C(NCC1(N2CCCCC2)CCCCC1)c1cc(F)c(F)cc1Cl`, the activation was inactive: -1.23%. As for `Cc1ccccc1C(=O)NCC1(N2CCCCC2)CCCCC1`, the activation is inactive: 0.84%. Take `CN(C)c1ccc(C(=O)NCC2(N(C)C)CCCCC2)cc1`: the activation was inactive: 1.24%. For the compound `CN(C)C1CCCC1OC(=O)C(O)(c1ccccc1)c1ccccc1` (centres undefined), the activation is inactive: -3.41%.

As for `Cc1ccc(C(=O)NCC2(N3CCCCC3)CCCCC2)cc1`, the activation was inactive: 1.93%. With `CCN(CC)CC(C)C(C)OC(=O)C(O)(c1ccccc1)c1ccccc1` (centres undefined), the activation is inactive: -0.06%.

Consider `COc1cc(SC)ccc1C(=O)NCC1(N(C)C)CCCCC1`, for which the activation is inactive: 2.37%.

For `CC(C)N1C(=O)CC2(CCN(CCOC(=O)C(O)(c3ccccc3)c3ccccc3)CC2)C1=O`, the activation was inactive: 10.2%. On to `CN1[C@@H]2CC[C@H]1CC(OC(=O)C(O)(c1ccccc1)c1ccccc1)C2` (some centres undefined), for which the activation was inactive: -0.36%. For the compound `O=C(NCC1(N2CCCCC2)CCCCC1)c1cc([N+](=O)[O-])ccc1Cl`, the activation was inactive: 0.03%.
